The source of these data is patent EP4834341A1, “PHARMACEUTICAL COMPOSITION AND METHOD FOR TREATING AND/OR PREVENTING CORNEAL INJURY” (dated 2026).

Test [1] relates to BAC eye drop-induced mouse model. Description: Tear test (phenol red thread) in BAC eye drop-induced mouse model. As to conditions: 100 mg/kg orally twice per day. Here is the method:
(§1) Example 1: Testing the effects of 7,8-DHF on corneal epithelial injury, neurotrophic keratitis, and dry eye disease in a BAC eye drop-induced mouse model.
(§2) Normal control group: Mice received topical administration of 5 µL saline to each eye twice daily for 7 consecutive days.
(§3) Model group: Mice received topical administration of 5 µL 0.1 % BAC to each eye twice daily for 7 consecutive days.
(§4) 7,8-DHF treatment group: Mice received topical administration of 5 µL 0.1% BAC to each eye twice daily for 7 consecutive days. Starting from Day 3 of 0.1% BAC administration, 7,8-DHF was administered orally twice per day at a dose of 100 mg/kg body weight with an administration volume of 10 µL/g, and the 7,8-DHF treatment lasted for 7 days.
Tear testing method: Designating the first day of adiministation to the model group as Day 1. Tear tests were performed on Days 5 and Day 10 for the model group, treatment group, and normal control group, respectively. The testing method was as follows: After being anesthesiad, the mouse lower eyelid was gently pulled open, and a phenol red thread was inserted into the outer third of the eyelid using forceps. Timing began immediately, and after 1 minute, the length of the reddened cotton thread was measured and recorded.

Test [2] relates to mouse corneal alkali burn model. Description: Corneal nerve density in mouse corneal alkali burn model (GFP transgenic mice, fluorescence microscopy, Image J). As to conditions: 50 mg/kg once daily, one week, quantified with Image J, versus model group (FIG. 5). As for the experimental part: Example 2: Testing the effects of 7,8-DHF on corneal nerve protection and promotion of corneal nerve growth in a mouse corneal alkali burn model
• A. Preparation of an alkali burn solution: 0.4 g of sodium hydroxide powder was weighed and dissolved in 10 mL of deionized water. • B. Mouse corneal alkali burn model: Filter paper discs with a diameter of 2 mm were prepared. After the mice were anesthesiad, 1 µL of the alkali solution was applied onto the filter paper discs. Once the filter paper discs were completely soaked with the alkali solution, they were placed onto the center of the cornea. After 8 seconds, the filter paper discs were immediately removed, and the eyeballs were rinsed with 10 mL of PBS.
7,8-DHF Treatment: Administration was initiated after modeling, once daily, at a dose of 50 mg/kg. […] The entire cornea was harvested to prepare flat wholemounts, which were then imaged under a fluorescence microscope.
In Example 2 of the present disclosure, transgenic mice were used. The corneal nerves of the transgenic mice specifically express green fluorescent protein, and thus the distribution of corneal nerves can be marked by green fluorescence signals. […]
(§5) Images were acquired using a fluorescence microscope. After corneal nerve density was analyzed and quantified using the image analysis software Image J, intergroup statistical comparison was performed.

Test [3] relates to mouse corneal epithelial abrasion model. Description: Corneal nerve density in mouse corneal epithelial abrasion model (GFP transgenic mice, fluorescence microscopy, Image J). As to conditions: 50 mg/kg once daily, one week. Here is the method: Example 3: Testing the effects of 7,8-DHF on corneal nerve protection and promotion of corneal nerve growth in a mouse corneal epithelial abrasion model.
• A. Mouse corneal epithelial abrasion model: After mice were anesthetized, the corneal epithelium was removed to expose the corneal stroma using an electric cornea burr. The wound was horizontally extdented to the limbus. • B. 7,8-DHF Treatment: Administration was initiated after modeling, once daily, at a dose of 50 mg/kg. After 7 days of administration, the mice were subjected to cardiac perfusion and tissue collection. The entire cornea was harvested to prepare flat wholemounts, which were then imaged under a fluorescence microscope.
In Example 3 of the present disclosure, transgenic mice were used. The corneal nerves of the transgenic mice specifically express green fluorescent protein, and thus the distribution of corneal nerves can be visualized by green fluorescence signals. The primary distribution features of corneal nerves are: corneal stromal nerve trunks, subbasal nerve plexus, and intraepithelial nerve terminals.
as §5

The test system of test [4] is BAC eye drop-induced mouse model. Description: Corneal fluorescein staining in BAC eye drop-induced mouse model. Particulars: 7,8-DHF orally twice per day 100 mg/kg from Day 3 of 0.1% BAC, 7 days; scored Day 5 and Day 10; compared with the model group (FIG. 1). As for the experimental part:
as §1, §2, §3, §4
Corneal Fluorescein Staining: Designating the first day of adiministration to the model group as Day 1. Corneal fluorescein staining was performed on Day 5 and Day 10 for the model group, treatment group, and normal control group, respectively. The staining procedure was as follows: after mice were anesthetized, 5 µL of 0.1% sodium fluorescein was instilled into each eye of the mice, the eyes were kept closed for several seconds to allow the sodium fluorescein to distribute as evenly as possible across the cornea, and then observed under a slit lamp. The cornea was divided into four regions, and scores were recorded for each region. […]

SMILES strings stand for the structures.

As to `O=c1cc(-c2ccccc2)oc2c(O)c(O)ccc12`, the tear volume entry in test [1] (after 7 days of 7,8-DHF treatment, versus normal control group (FIG. 2)) is “comparable to that in the normal control group”; in test [1] (second day after the start of 7,8-DHF treatment, compared to the model group (FIG. 2)) it was “increased significantly”. The corneal nerve density entry is “significantly higher” in test [2] and “significantly higher” in test [3] (quantified with Image J, versus model group (FIG. 6)). The “density of corneal nerve distribution (density of corneal nerve staining signals) at the levels of the corneal stromal nerve trunks, subbasal nerve plexus, and intraepithelial nerve terminals” value in test [3] (compared with the model group (FIG. 4)) was “significantly increased”. The “corneal fluorescein staining scores” value in test [4] is “significantly lower”.
